Test results taken from ChEMBL document CHEMBL1765088, “5-Benzamidoisoquinolin-1-ones and 5-(ω-carboxyalkyl)isoquinolin-1-ones as isoform-selective inhibitors of poly(ADP-ribose) polymerase 2 (PARP-2)” (J Med Chem, 2011).

Assay: Selectivity ratio, ratio of IC50 for full length human PARP-1 to IC50 for recombinant full length mouse PARP-2
Outline: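 Ratio of IC50s from two assays. Human full-length PARP-1 from HeLa nuclear extract (ca. 50 ng) in FlashPlate scintillation proximity assay with 5.0 μM NAD+. Murine full-length PARP-2 antibody-captured with 2.5 μM 3H-NAD+. Both used duplex oligonucleotide DNA, 2% DMSO, pH 7.6 HEPES buffer, 10 min preincubation then 45 min reaction, eight concentrations in triplicate, and log dose-response IC50 fits.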

## O=C(Nc1cccc2c(=O)[nH]ccc12)C12CC3CC(CC(C3)C1)C2
  Ratio IC50: > 2.5

## O=C(Nc1cccc2c(=O)[nH]ccc12)C1CCCCC1
  Ratio IC50: > 2.9
